Assay [1] has as its target HER2 tyrosine kinase receptor, endogenous protein of BT-474 / MCF7 cells (UniProt P04626). The experiment in a line: apparent Kd ('exemplary Kds'), determined see Example 6 (bi-component dPCR assay).
For assay [2] the target is unchanged. Nature of the assay: apparent Kd, determined according to Example 6 (bi-component dPCR assay).
For assay [3] the target is unchanged. The experiment in a line: apparent Kd; compartmentalized bi-component (PICO) dPCR assay, antibody titration on BT-474 cell lysate, recursive fit.

Take “Pertuzumab (PTZ), recombinant humanized monoclonal anti-HER2 antibody, conjugated with a DNA oligonucleotide label”: the Kd amounted to 0.074 nM in assay [1], 0.093 nM in assay [2] and 0.093 nM in assay [3].

Turning to “Trastuzumab (TTZ), recombinant humanized monoclonal anti-HER2 antibody, conjugated with a DNA oligonucleotide label”, the Kd in assay [2] came out at 0.049 nM.

Values taken from patent US20260258474A1.
